{
  "source": "patent US11033506B2",
  "about": "“External skin preparation comprising a core-shell structure” (SEKISUI CHEMICAL CO., LTD., priority 2017, dated 2021)",
  "assay": "Octanol/water partition coefficient",
  "type": "physicochemical",
  "conditions": "Log10 (octanol phase/aqueous phase), aqueous buffer solution of pH 7",
  "description": "Specifically, the octanol/water partition coefficient can be determined by calculation using an equation: Octanol/water partition coefficient=Log10 (concentration in an octanol phase/concentration in an aqueous phase).",
  "data": [
    {"substance": "sulfasalazine", "values": [
      {"measurement": "octanol/water partition coefficient", "value": 2.3}
    ]}
  ]
}
